ChEMBL document CHEMBL5226302, “Small-Molecule Inhibitors Targeting the Canonical WNT Signaling Pathway for the Treatment of Cancer” (J Med Chem, 2021)

Sequences of proteins named here, by UniProt entry; tags and fusion partners are left off. A change or cut given only in a name is not applied to a line headed by its entry.
UniProt P12830: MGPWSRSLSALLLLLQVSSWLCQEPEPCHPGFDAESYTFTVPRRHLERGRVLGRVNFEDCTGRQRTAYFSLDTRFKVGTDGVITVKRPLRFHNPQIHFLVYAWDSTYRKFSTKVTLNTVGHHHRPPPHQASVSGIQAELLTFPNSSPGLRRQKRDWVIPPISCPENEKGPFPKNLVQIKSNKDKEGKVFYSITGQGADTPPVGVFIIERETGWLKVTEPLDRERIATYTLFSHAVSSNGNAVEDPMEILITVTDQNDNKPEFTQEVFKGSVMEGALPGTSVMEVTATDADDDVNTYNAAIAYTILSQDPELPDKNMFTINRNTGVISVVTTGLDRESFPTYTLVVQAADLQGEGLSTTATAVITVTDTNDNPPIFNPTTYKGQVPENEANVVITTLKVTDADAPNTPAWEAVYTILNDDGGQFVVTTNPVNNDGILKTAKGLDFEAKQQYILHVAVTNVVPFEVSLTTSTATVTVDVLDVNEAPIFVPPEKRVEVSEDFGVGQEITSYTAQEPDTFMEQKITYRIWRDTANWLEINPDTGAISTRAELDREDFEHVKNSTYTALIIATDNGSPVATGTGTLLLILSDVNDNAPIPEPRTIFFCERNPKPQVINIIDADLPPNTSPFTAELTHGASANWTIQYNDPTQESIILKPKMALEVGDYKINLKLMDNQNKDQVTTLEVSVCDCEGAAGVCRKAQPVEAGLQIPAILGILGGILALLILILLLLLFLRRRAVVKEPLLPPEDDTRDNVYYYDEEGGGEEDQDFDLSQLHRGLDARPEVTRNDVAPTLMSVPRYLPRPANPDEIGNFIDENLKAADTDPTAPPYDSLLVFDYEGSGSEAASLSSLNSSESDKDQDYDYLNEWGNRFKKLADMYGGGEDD
UniProt P35222, whole entry: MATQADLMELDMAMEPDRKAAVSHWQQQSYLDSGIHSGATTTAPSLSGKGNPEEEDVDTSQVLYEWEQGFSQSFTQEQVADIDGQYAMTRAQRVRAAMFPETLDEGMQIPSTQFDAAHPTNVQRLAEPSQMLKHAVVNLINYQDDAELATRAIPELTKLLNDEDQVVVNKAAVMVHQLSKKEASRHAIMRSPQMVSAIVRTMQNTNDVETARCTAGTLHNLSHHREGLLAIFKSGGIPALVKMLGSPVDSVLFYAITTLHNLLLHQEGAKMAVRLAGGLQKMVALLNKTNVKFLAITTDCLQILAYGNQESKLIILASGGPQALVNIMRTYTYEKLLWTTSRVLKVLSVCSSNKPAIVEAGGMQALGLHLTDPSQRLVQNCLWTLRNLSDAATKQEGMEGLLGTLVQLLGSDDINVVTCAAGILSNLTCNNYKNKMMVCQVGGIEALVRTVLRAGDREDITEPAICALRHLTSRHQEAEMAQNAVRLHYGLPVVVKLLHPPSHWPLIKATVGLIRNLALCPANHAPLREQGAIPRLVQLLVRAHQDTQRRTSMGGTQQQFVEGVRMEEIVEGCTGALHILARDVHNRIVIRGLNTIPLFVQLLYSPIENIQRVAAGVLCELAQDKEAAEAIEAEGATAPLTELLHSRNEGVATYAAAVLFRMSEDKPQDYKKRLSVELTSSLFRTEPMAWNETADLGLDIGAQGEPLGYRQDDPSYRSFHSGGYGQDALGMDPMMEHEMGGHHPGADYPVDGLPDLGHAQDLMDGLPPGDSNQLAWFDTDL

Biological target: Catenin beta-1/Cadherin-1 (Homo sapiens, UniProt P12830+P35222)
Assay: Inhibition of beta-catenin/E-cad signaling pathway in human COLO 320DM cells assessed as reduction in AXIN2
Assay type: cell-based

IC50: 170 µM
Compound: O=C(O)CCCn1c2ccccc2c2nc3nonc3nc21
